Target: JUN bZIP domain (human, UniProt P05412 252-315)
Assay: circular dichroism

Chains of the proteins cited; added tags and fusions are not shown. Residues count along the entry.
UniProt P05412, 252-315: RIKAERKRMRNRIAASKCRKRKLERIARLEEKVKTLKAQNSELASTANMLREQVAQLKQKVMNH

B1: MEQ bZIP domain (domain or fragment, Marek's disease virus, UniProt Q9DGW5 57-120, looked up)
chain: KQKLERRRKRNRDAARRRRRKQTDYVDKLHEACEELQRANEHLRKEIRDLRTECTSLRVQLACH
Tm of the complex: 41.3 °C

Source: article PMC2841013 (Biochemistry, 2010)
